Assay results published in ChEMBL document CHEMBL4419168, “Substituted n-([1,1''-biphenyl]-3-yl)-[1,1''-biphenyl]-3-carboxamide analogs as inhibitors for beta-catenin/b-cell lymphoma 9 interactions” (2018).

The chains behind the UniProt entries cited, without tags or fusion partners. Where a name states a change or a piece, a line headed by the entry shows the natural chain unless it says otherwise.
UniProt P35222: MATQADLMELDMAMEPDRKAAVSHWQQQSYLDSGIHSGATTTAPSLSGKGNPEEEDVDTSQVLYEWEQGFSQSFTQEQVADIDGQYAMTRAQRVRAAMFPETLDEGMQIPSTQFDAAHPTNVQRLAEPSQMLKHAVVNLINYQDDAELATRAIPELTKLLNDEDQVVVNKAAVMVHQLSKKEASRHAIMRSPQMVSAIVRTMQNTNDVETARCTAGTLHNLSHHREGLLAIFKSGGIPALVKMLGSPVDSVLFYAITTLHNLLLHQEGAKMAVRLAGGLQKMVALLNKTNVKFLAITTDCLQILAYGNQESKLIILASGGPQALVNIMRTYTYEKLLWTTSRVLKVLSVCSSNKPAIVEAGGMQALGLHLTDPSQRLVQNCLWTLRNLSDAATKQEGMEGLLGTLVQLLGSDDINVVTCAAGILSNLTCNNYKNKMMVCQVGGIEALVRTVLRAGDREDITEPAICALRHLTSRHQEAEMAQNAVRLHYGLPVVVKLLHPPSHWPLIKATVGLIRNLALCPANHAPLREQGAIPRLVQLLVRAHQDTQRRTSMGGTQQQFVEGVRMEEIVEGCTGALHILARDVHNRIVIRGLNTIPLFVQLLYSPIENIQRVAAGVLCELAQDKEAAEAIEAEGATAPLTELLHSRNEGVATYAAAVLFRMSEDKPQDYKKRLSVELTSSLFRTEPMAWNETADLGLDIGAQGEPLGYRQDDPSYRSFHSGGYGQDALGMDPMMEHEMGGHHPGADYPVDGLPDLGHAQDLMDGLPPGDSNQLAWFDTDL
UniProt O00512: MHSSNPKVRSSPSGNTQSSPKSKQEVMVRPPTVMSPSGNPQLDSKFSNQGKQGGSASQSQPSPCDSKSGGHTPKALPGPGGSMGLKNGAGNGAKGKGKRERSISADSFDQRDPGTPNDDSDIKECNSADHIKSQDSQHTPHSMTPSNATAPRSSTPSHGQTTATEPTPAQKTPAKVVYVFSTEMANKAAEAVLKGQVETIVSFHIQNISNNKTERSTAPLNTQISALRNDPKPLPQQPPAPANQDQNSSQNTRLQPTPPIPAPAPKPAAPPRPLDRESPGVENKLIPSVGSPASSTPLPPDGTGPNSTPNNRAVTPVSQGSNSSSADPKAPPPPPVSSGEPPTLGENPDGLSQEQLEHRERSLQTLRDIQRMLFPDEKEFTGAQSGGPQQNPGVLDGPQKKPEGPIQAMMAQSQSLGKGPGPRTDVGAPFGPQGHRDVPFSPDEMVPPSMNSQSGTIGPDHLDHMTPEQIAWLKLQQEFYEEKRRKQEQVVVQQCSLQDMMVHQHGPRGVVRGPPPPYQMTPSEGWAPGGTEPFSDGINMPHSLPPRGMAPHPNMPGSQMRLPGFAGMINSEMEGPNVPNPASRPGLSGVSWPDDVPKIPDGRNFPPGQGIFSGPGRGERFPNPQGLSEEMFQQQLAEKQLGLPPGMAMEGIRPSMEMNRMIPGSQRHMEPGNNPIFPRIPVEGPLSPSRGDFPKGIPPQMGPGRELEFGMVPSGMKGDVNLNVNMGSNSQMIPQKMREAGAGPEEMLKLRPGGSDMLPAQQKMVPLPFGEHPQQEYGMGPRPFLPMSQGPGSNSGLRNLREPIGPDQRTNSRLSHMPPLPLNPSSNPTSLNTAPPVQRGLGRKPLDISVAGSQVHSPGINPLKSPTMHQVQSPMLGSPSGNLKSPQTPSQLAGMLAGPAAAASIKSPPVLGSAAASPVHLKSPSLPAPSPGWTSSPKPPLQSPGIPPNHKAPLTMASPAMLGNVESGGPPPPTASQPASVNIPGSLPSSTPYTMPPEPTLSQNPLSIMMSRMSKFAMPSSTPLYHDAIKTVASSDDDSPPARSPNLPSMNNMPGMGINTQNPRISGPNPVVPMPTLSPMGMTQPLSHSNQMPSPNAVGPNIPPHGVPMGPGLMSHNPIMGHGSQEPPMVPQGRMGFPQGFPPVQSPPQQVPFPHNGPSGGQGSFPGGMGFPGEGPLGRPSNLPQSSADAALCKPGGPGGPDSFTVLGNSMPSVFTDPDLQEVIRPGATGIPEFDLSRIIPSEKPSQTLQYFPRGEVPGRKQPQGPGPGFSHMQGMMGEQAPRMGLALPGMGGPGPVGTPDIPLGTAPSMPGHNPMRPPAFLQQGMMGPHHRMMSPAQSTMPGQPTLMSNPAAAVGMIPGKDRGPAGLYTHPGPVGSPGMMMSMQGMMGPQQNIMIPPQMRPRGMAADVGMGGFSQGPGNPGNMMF

Legend:
[1] = target: T1, beta-catenin-B-cell lymphoma 9 protein complex (Homo sapiens) (UniProt P35222+O00512); assay: Inhibition of beta-catenin/BCL9 in human MDA-MB-231 cells assessed as Axin2 mRNA expression at 1 uM by quantitative real-time PCR analysis based cell based assay relative to control
[2] = target: T1, beta-catenin-B-cell lymphoma 9 protein complex (Homo sapiens); assay: Inhibition of beta-catenin/BCL9 in human MDA-MB-231 cells assessed as Axin2 mRNA expression at 2 uM by quantitative real-time PCR analysis based cell based assay relative to control
[3] = target: T1, beta-catenin-B-cell lymphoma 9 protein complex (Homo sapiens); assay: Inhibition of beta-catenin/BCL9 in human MDA-MB-231 cells assessed as Axin2 mRNA expression at 4 uM by quantitative real-time PCR analysis based cell based assay relative to control
[4] = target: T1, beta-catenin-B-cell lymphoma 9 protein complex (Homo sapiens); assay: Inhibition of beta-catenin/BCL9 in human MDA-MB-231 cells assessed as LGR5 mRNA expression at 1 uM by quantitative real-time PCR analysis based cell based assay relative to control
[5] = target: T1, beta-catenin-B-cell lymphoma 9 protein complex (Homo sapiens); assay: Inhibition of beta-catenin/BCL9 in human MDA-MB-231 cells assessed as LGR5 mRNA expression at 2 uM by quantitative real-time PCR analysis based cell based assay relative to control
[6] = target: T1, beta-catenin-B-cell lymphoma 9 protein complex (Homo sapiens); assay: Inhibition of beta-catenin/BCL9 in human MDA-MB-231 cells assessed as LGR5 mRNA expression at 4 uM by quantitative real-time PCR analysis based cell based assay relative to control
[7] = target: T1, beta-catenin-B-cell lymphoma 9 protein complex (Homo sapiens); assay: Inhibition of beta-catenin/BCL9 in human MDA-MB-231 cells assessed as LEF1 mRNA expression at 1 uM by quantitative real-time PCR analysis based cell based assay relative to control
[8] = target: T1, beta-catenin-B-cell lymphoma 9 protein complex (Homo sapiens); assay: Inhibition of beta-catenin/BCL9 in human MDA-MB-231 cells assessed as LEF1 mRNA expression at 2 uM by quantitative real-time PCR analysis based cell based assay relative to control
[9] = target: T1, beta-catenin-B-cell lymphoma 9 protein complex (Homo sapiens); assay: Inhibition of beta-catenin/BCL9 in human MDA-MB-231 cells assessed as LEF1 mRNA expression at 4 uM by quantitative real-time PCR analysis based cell based assay relative to control
[10] = target: T1, beta-catenin-B-cell lymphoma 9 protein complex (Homo sapiens); assay: Inhibition of beta-catenin/BCL9 in human MDA-MB-231 cells assessed as cyclin D1 mRNA expression at 1 uM by quantitative real-time PCR analysis based cell based assay relative to control
[11] = target: T1, beta-catenin-B-cell lymphoma 9 protein complex (Homo sapiens); assay: Inhibition of beta-catenin/BCL9 in human MDA-MB-231 cells assessed as cyclin D1 mRNA expression at 2 uM by quantitative real-time PCR analysis based cell based assay relative to control
[12] = target: T1, beta-catenin-B-cell lymphoma 9 protein complex (Homo sapiens); assay: Inhibition of beta-catenin/BCL9 in human MDA-MB-231 cells assessed as cyclin D1 mRNA expression at 4 uM by quantitative real-time PCR analysis based cell based assay relative to control
[13] = target: T1, beta-catenin-B-cell lymphoma 9 protein complex (Homo sapiens); assay: Inhibition of beta-catenin/BCL9 in human SW480 cells assessed as cyclin D1 mRNA expression at 1 uM by quantitative real-time PCR analysis relative to control; assay type: cell-based
[14] = target: T1, beta-catenin-B-cell lymphoma 9 protein complex (Homo sapiens); assay: Inhibition of beta-catenin/BCL9 in human SW480 cells assessed as LEF1 mRNA expression at 4 uM by quantitative real-time PCR analysis relative to control; assay type: cell-based
[15] = target: T1, beta-catenin-B-cell lymphoma 9 protein complex (Homo sapiens); assay: Inhibition of beta-catenin/BCL9 in human SW480 cells assessed as LEF1 mRNA expression at 2 uM by quantitative real-time PCR analysis relative to control; assay type: cell-based
[16] = target: T1, beta-catenin-B-cell lymphoma 9 protein complex (Homo sapiens); assay: Inhibition of beta-catenin/BCL9 in human SW480 cells assessed as LEF1 mRNA expression at 1 uM by quantitative real-time PCR analysis relative to control; assay type: cell-based
[17] = target: T1, beta-catenin-B-cell lymphoma 9 protein complex (Homo sapiens); assay: Inhibition of beta-catenin/BCL9 in human SW480 cells assessed as LGR5 mRNA expression at 4 uM by quantitative real-time PCR analysis relative to control; assay type: cell-based
[18] = target: T1, beta-catenin-B-cell lymphoma 9 protein complex (Homo sapiens); assay: Inhibition of beta-catenin/BCL9 in human SW480 cells assessed as LGR5 mRNA expression at 2 uM by quantitative real-time PCR analysis relative to control; assay type: cell-based
[19] = target: T1, beta-catenin-B-cell lymphoma 9 protein complex (Homo sapiens); assay: Inhibition of beta-catenin/BCL9 in human SW480 cells assessed as LGR5 mRNA expression at 1 uM by quantitative real-time PCR analysis relative to control; assay type: cell-based
[20] = target: T1, beta-catenin-B-cell lymphoma 9 protein complex (Homo sapiens); assay: Inhibition of beta-catenin/BCL9 in human SW480 cells assessed as Axin2 mRNA expression at 4 uM by quantitative real-time PCR analysis relative to control; assay type: cell-based
[21] = target: T1, beta-catenin-B-cell lymphoma 9 protein complex (Homo sapiens); assay: Inhibition of beta-catenin/BCL9 in human SW480 cells assessed as Axin2 mRNA expression at 2 uM by quantitative real-time PCR analysis relative to control; assay type: cell-based
[22] = target: T1, beta-catenin-B-cell lymphoma 9 protein complex (Homo sapiens); assay: Inhibition of beta-catenin/BCL9 in human SW480 cells assessed as Axin2 mRNA expression at 1 uM by quantitative real-time PCR analysis relative to control; assay type: cell-based
[23] = target: T1, beta-catenin-B-cell lymphoma 9 protein complex (Homo sapiens); assay: Inhibition of beta-catenin/BCL9 in human SW480 cells assessed as cyclin D1 mRNA expression at 2 uM by quantitative real-time PCR analysis relative to control; assay type: cell-based
[24] = target: T1, beta-catenin-B-cell lymphoma 9 protein complex (Homo sapiens); assay: Inhibition of beta-catenin/BCL9 in human SW480 cells assessed as cyclin D1 mRNA expression at 4 uM by quantitative real-time PCR analysis relative to control; assay type: cell-based
Homo sapiens = species on record: Homo sapiens; assay: Selectivity ratio of Kd for binding affinity to beta-catenin D145A/E155A mutant (unknown origin) expressed in Escherichia coli BL21 DE3 by ITC method to Kd for binding affinity to C-terminal 6x-histidine tagged wild type beta-catenin (138 to 686 residues) (unknown origin) expressed in Escherichia coli BL21 DE3 by ITC method
[25] = target: T1, beta-catenin-B-cell lymphoma 9 protein complex (Homo sapiens); assay: Inhibition of beta-catenin/BCL9 in human MDA-MB-231 cells assessed as Axin2 mRNA expression by quantitative real-time PCR analysis based cell based assay
[26] = target: T1, beta-catenin-B-cell lymphoma 9 protein complex (Homo sapiens); assay: Inhibition of beta-catenin/BCL9 in human MDA-MB-231 cells assessed as LGR5 mRNA expression by quantitative real-time PCR analysis based cell based assay
[27] = target: T1, beta-catenin-B-cell lymphoma 9 protein complex (Homo sapiens); assay: Inhibition of beta-catenin/BCL9 in human MDA-MB-231 cells assessed as LEF1 mRNA expression by quantitative real-time PCR analysis based cell based assay
[28] = target: T1, beta-catenin-B-cell lymphoma 9 protein complex (Homo sapiens); assay: Inhibition of beta-catenin/BCL9 in human MDA-MB-231 cells assessed as cyclin D1 mRNA expression by quantitative real-time PCR analysis based cell based assay
[29] = target: T1, beta-catenin-B-cell lymphoma 9 protein complex (Homo sapiens); assay: Inhibition of beta-catenin/BCL9 in human SW480 cells assessed as Axin2 mRNA expression by quantitative real-time PCR analysis based cell based assay
[30] = target: T1, beta-catenin-B-cell lymphoma 9 protein complex (Homo sapiens); assay: Inhibition of beta-catenin/BCL9 in human SW480 cells assessed as LGR5 mRNA expression by quantitative real-time PCR analysis based cell based assay
[31] = target: T1, beta-catenin-B-cell lymphoma 9 protein complex (Homo sapiens); assay: Inhibition of beta-catenin/BCL9 in human SW480 cells assessed as LEF1 mRNA expression by quantitative real-time PCR analysis based cell based assay
[32] = target: T1, beta-catenin-B-cell lymphoma 9 protein complex (Homo sapiens); assay: Inhibition of beta-catenin/BCL9 in human SW480 cells assessed as cyclin D1 mRNA expression by quantitative real-time PCR analysis based cell based assay
[33] = target: T1, beta-catenin-B-cell lymphoma 9 protein complex (Homo sapiens); assay: Inhibition of beta-catenin/BCL9 in human HCT116 cells by co-immunoprecipitation assay; assay type: cell-based

Compound `O=C(Nc1ccc(O[C@H]2CCNC2)c(-c2ccc(F)cc2)c1)c1ccc(O[C@H]2CCNC2)c(-c2ccc(F)c(F)c2)c1` has a fold change (FC) [1] of 0.7, a fold change (FC) [2] of 0.54 and a fold change (FC) [3] of 0.36. It also gave a fold change (FC) [4] of 0.69, a fold change (FC) [5] of 0.42 and a fold change (FC) [6] of 0.16. It also gave a fold change (FC) [7] of 0.69, a fold change (FC) [8] of 0.47 and a fold change (FC) [9] of 0.36. For the same compound, the fold change (FC) [10] was 0.75, the fold change (FC) [11] was 0.55 and the fold change (FC) [12] was 0.34. It also gave a fold change (FC) [13] of 0.65, a fold change (FC) [14] of 0.65 and a fold change (FC) [15] of 0.77. For the same compound, the fold change (FC) [16] was 0.94, the fold change (FC) [17] was 0.28 and the fold change (FC) [18] was 0.44. For the same compound, the fold change (FC) [19] was 0.73, the fold change (FC) [20] was 0.23 and the fold change (FC) [21] was 0.39. For the same compound, the fold change (FC) [22] was 0.7, the fold change (FC) [23] was 0.42 and the fold change (FC) [24] was 0.27. For the same compound, the Ratio (Homo sapiens) was 9.6, the inhibition [25] was “Dose-dependent effect” and the inhibition [26] was “Dose-dependent effect”. The inhibition [27] was “Dose-dependent effect”, the inhibition [28] was “Dose-dependent effect” and the inhibition [29] was “Dose-dependent effect”. The inhibition [30] was “Dose-dependent effect”, the inhibition [31] was “Dose-dependent effect” and the inhibition [32] was “Dose-dependent effect”. The inhibition [33] was “Dose-dependent effect”.
